Apparent affinities of Ab-95 variants for a coronavirus HR2 peptide

The target is the same throughout: PDVDLGDISGINAS, from the HR2 region of SARS-CoV-2 spike.

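The parent was found by panning a naive human phage display library on the peptide. Library AAYL52 holds single substitutions and randomly drawn double and triple substitutions in the CDRs. In AlphaSeq, yeast of one mating type display the scFv and yeast of the other type display the target. After mating in shaken culture at 30 °C for 16 h, diploids were selected and their barcode pairs sequenced. Each replicate has its own calibration line, from reference interactions of the BCL2 family. The assay was run in three technical replicates.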

Ab-95 is the parent antibody, in scFv form: VH, then a 15-residue (Gly4Ser)3 linker, then VL. The heavy chain is unchanged in all variants.
VH: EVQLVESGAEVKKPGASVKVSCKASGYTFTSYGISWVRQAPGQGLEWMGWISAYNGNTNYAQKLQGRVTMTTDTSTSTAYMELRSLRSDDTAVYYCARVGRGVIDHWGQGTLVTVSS
VL: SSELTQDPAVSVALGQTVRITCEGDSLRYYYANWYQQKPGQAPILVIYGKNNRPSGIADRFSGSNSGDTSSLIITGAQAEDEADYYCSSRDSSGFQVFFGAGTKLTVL

Changes read parent residue, position, new residue, counted from the first residue of the VL shown.
Affinities are written as log10 Kd with Kd in nM; a lower number is a better binder.
Averages over replicates are reported, and they cover detected replicates only.
An entry "ND" has no value in the source: the pair was not observed among the diploids in that replicate. This suggests poor binding but is not conclusive.
Background: pairings of library AAYL52 with three empty control strains gave a value in 28% of cases (median 3.91, 5th percentile 2.90). Values in that range, when seen in few replicates, are hard to tell from nonspecific mating. The control count says in how many pairings with the empty strains this scFv gave a signal, with their mean in brackets.

changes	replicates, log10 nM	log10 Kd (nM), mean	signal with controls
R53E+S93F+F95D	ND / 4.45 / ND	4.45	1/9 (4.44)
G49M+P54N+V97D	5.16 / ND / 3.25	4.21	2/9 (3.14)
N33T+N52C+Q96K	ND / ND / ND	ND	1/9 (3.61)
Y30R+N51Y+R90D	3.87 / 3.18 / 4.22	3.76	5/9 (3.55)
G94K+V97A	2.59 / 2.60 / 2.24	2.48	2/9 (4.77)
E23C+K50L	3.17 / 3.48 / 3.40	3.35	2/9 (4.60)
K50P+N52S+D91I	2.55 / 2.10 / 1.83	2.16	3/9 (4.21)
N51Q+N52A+Q96I	ND / 5.83 / ND	5.83	2/9 (4.72)
G24T+Y29C+A32P	2.41 / 1.80 / 2.83	2.35	1/9 (3.33)
A32T+N33G+N51P	3.31 / 5.49 / ND	4.40	2/9 (3.61)
S92K+S93K+V97S	3.39 / 3.52 / ND	3.46	0/9
E23Q+A32P+S92L	1.97 / 1.70 / 1.70	1.79	3/9 (3.54)
E23S+Y31D+G94T	3.13 / 2.99 / 3.00	3.04	5/9 (3.86)
A32G+S89T+Q96W	3.98 / ND / ND	3.98	3/9 (3.17)
E23W+D25H+N33Y	3.72 / 3.70 / 3.63	3.68	4/9 (4.05)
E23T+K50V+N52W	3.72 / 3.14 / 2.49	3.12	2/9 (3.88)
R28W+N52S+Q96D	3.78 / 2.64 / 2.62	3.01	2/9 (3.69)
K50T+N51T+S93H	3.75 / 4.42 / ND	4.08	1/9 (3.81)
N51L+V97C	ND / ND / 4.06	4.06	2/9 (3.61)
S26L+L27N+P54C	ND / ND / ND	ND	2/9 (3.60)
Y29Q+Y30M+S92E	1.44 / 1.64 / 0.75	1.28	0/9
P54W+S92P+F95S	2.87 / 3.25 / 3.29	3.14	6/9 (3.56)
S89G+R90M+V97Y	2.48 / 2.56 / 2.82	2.62	3/9 (3.93)
Y29C+A32V+Q96Y	4.72 / 4.61 / 2.96	4.10	5/9 (4.22)
S88I+R90N+F95S	5.43 / 3.23 / ND	4.33	2/9 (4.00)
S92G+G94E	2.13 / 2.03 / 2.04	2.06	7/9 (3.76)
N51A+N52H+S55W	ND / 5.09 / 4.16	4.63	4/9 (4.05)
A32Q+P54G	ND / ND / ND	ND	2/9 (4.69)
G49A+D91M+F98Q	4.44 / 3.93 / ND	4.19	1/9 (5.19)
R28P+Y31M+Q96G	2.43 / 2.73 / 2.69	2.62	6/9 (4.39)
S92T+S93W+G94P	2.19 / 3.93 / 2.67	2.93	3/9 (3.44)
Y31W+A32S+S89E	4.09 / 4.07 / 4.40	4.19	3/9 (3.91)
Y29I+S55W+S92Y	1.96 / 1.79 / 1.48	1.74	4/9 (3.55)
D25Y+L27Q+Y31L	2.75 / 3.57 / ND	3.16	2/9 (3.64)
Y30D+A32H+N52P	3.79 / ND / ND	3.79	1/9 (3.62)
E23Q+R90N+G94I	3.16 / 3.76 / 3.44	3.45	1/9 (3.68)
L27E+Y29S+Y31G	2.32 / 2.32 / 2.12	2.25	1/9 (3.87)
E23Y+N33D+R53E	4.09 / 3.53 / 3.35	3.66	6/9 (3.83)
R53K+S88E+F98P	ND / 3.85 / ND	3.85	1/9 (4.11)
Y29R+D91N+Q96W	4.57 / 3.35 / 3.28	3.73	3/9 (3.26)
S26W+D91W+G94E	ND / ND / ND	ND	1/9 (3.82)
G24D+S55T+V97H	3.48 / 3.32 / ND	3.40	1/9 (2.80)
N52A+P54L+R90G	5.41 / 3.58 / ND	4.50	3/9 (3.98)
Y31C+G49A+N52F	ND / ND / 3.80	3.80	2/9 (3.67)
D25L+S89C+F95V	3.09 / 2.40 / 2.56	2.69	1/9 (4.33)
L27D+R28N	4.11 / 3.12 / ND	3.61	0/9
R28G+Y30M+N33L	4.61 / 2.75 / 4.54	3.97	4/9 (4.18)
D25W+A32F+N52L	4.34 / ND / 4.06	4.20	3/9 (4.12)
R28N+P54E+R90H	3.09 / 2.34 / 4.03	3.15	1/9 (3.67)
R28P+A32M+N52P	ND / 5.60 / 4.22	4.91	0/9

For reference, the parent read 2.31 as the reference entry and 2.25 as a member of this library.

From the AlphaSeq antibody data of Engelhart et al. 2022 (doi:10.1038/s41597-022-01779-4), copy in the FLAb collection.